The nature of this data set: 1H NMR stability in aqueous media. The protocol:
All assays were carried out immediately after the solution preparation.

For “[(η^6-p-Cymene)Ru(1-hydroxyquinoline-2-(1H)-thionato)Cl] [Compound 1g]”, the “stability under enzymatic assay conditions (1H NMR)” value (6.25% EtOH-d6/D2O, 80.2 mM K2HPO4 and 19.8 mM KH2PO4, immediately and after one hour) is on record as “remain stable”. Also, the “stability in D2O containing 140 mM NaCl (1H NMR)” value (after one day) is on record as “negligible changes”. Also, the “stability in D2O (1H NMR)” value (immediately and after three days) was “remain the main present species”.

Values taken from paper PMC7460603 (International Journal of Molecular Sciences, 2020).
